Data on four molecules can be found in US11040981B2, “Pyrrolotriazine compounds and methods of inhibiting TAM kinases” (Syros Pharmaceuticals, Inc., priority 2017, dated 2021).

Amino acid sequences for entries named in this document (tags omitted). Residues count along the entry.
UniProt P30530, 26-894 limits assumed: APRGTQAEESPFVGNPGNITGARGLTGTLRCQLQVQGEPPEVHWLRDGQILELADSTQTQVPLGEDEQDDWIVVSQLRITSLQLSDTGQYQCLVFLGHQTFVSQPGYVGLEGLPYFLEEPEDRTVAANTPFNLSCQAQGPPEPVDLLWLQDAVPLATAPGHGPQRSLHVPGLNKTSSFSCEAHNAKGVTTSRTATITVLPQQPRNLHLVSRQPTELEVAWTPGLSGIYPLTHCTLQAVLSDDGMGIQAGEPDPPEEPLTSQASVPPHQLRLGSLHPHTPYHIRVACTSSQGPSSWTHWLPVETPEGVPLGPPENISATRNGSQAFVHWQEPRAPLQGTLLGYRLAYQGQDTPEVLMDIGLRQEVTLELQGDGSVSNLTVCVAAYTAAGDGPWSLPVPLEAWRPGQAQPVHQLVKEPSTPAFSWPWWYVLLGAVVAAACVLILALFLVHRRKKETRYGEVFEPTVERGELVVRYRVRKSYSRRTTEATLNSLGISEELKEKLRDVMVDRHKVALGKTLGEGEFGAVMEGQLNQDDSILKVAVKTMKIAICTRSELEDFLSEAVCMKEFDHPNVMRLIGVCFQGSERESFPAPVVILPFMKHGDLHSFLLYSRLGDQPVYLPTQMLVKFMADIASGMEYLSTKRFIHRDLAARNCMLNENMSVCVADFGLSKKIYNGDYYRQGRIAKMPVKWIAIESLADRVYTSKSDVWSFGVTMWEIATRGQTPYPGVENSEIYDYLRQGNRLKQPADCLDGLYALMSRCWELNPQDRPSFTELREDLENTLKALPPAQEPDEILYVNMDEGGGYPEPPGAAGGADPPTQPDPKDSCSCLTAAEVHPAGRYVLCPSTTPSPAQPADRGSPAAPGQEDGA
UniProt P36888, 27-993 limits assumed: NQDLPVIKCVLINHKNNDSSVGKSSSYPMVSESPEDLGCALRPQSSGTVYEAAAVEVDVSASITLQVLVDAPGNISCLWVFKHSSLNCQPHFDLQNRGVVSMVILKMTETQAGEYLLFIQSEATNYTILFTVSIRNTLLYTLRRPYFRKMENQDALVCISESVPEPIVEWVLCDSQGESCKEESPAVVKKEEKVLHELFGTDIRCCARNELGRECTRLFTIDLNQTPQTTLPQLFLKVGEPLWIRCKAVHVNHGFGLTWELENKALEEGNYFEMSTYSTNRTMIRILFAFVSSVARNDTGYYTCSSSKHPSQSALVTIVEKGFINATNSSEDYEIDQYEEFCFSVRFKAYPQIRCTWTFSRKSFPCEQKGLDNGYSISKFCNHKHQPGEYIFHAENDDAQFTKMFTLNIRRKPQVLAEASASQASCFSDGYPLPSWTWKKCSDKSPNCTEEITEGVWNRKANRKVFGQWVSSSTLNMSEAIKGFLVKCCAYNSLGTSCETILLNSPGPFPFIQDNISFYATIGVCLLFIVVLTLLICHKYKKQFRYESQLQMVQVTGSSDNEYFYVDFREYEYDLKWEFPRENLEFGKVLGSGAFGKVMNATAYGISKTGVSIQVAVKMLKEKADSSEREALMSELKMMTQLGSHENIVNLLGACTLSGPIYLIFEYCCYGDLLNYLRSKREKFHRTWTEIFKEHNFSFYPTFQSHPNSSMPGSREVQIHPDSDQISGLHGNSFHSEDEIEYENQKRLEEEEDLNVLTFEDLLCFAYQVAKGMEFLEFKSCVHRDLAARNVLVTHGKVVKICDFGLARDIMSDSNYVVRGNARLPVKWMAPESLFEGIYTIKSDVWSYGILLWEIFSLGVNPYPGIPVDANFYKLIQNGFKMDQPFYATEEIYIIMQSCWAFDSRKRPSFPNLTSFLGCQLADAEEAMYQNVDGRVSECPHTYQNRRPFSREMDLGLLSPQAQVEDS
UniProt Q12866, 21-999 limits assumed: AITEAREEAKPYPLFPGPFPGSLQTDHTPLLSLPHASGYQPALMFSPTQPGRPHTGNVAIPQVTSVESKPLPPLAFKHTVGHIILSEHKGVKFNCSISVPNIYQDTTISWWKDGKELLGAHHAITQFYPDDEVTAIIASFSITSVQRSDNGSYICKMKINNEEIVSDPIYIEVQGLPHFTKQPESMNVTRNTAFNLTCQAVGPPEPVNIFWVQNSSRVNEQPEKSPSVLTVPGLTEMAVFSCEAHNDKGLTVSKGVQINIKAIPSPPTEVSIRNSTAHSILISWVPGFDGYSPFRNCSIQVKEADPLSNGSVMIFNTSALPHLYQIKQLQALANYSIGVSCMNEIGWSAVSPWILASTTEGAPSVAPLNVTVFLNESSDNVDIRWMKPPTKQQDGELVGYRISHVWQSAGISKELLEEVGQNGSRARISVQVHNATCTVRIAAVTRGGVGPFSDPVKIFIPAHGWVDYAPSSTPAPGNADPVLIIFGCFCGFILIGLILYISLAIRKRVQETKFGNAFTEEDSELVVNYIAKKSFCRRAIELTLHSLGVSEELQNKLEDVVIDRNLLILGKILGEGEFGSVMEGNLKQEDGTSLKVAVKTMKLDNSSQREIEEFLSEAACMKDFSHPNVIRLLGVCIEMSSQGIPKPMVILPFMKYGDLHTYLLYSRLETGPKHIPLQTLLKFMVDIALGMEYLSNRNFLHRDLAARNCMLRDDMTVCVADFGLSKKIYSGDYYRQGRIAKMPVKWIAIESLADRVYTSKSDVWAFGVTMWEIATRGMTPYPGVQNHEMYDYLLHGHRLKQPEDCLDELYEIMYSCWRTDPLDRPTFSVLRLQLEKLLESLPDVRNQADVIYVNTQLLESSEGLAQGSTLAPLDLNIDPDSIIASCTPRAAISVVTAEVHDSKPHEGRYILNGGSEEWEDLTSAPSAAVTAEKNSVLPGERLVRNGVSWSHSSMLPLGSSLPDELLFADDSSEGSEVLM
UniProt Q06418, 41-890 limits assumed: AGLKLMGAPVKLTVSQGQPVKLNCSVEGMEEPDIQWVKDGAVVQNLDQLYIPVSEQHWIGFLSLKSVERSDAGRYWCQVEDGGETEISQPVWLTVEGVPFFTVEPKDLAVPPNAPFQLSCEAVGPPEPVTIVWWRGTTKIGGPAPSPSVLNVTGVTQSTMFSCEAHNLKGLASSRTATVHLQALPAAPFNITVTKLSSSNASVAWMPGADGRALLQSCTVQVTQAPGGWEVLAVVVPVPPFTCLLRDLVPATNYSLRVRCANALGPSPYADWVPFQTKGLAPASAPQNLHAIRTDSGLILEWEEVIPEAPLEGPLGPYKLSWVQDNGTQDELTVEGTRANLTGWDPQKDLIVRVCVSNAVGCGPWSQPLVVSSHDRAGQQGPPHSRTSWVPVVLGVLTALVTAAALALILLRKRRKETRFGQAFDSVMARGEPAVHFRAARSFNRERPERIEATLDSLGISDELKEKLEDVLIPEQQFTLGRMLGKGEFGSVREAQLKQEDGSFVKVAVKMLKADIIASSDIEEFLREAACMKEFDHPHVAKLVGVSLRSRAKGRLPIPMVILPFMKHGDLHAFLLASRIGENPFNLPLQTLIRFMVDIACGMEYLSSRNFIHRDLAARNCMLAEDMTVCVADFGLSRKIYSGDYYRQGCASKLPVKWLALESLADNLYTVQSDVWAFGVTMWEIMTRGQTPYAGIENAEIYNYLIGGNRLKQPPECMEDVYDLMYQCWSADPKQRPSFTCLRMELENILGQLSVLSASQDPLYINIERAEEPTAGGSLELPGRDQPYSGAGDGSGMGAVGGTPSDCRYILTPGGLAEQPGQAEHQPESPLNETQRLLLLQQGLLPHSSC

One assay has as its target AXL (Homo sapiens, UniProt P30530). Briefly: TR-FRET kinase activity assay, AXL. As to conditions: read-out: Axl IC50, ATP at Km, 60 minutes. On the procedure: (§1) IC50 values for compound inhibition of AXL, FLT3, MERTK and TYRO3 activity were determined by using a TR-FRET activity assay. A polypeptide substrate with a fluorescent label is phosphorylated on a tyrosine by each enzyme, where the now phosphorylated product is bound by a Europium-labeled antibody specific to that phosphorylation site. The proximity between the antibody and the substrate gives a signal known as TR-FRET. As the enzyme is inhibited by compound, less phosphorylated peptide product is made causing a decrease in overall signal.
(§2) Activity assays were performed in a 384-well, small volume, black microplates in an active enzyme volume of 10 μL and final developed volume of 20 μL. Final assay conditions are 50 mM HEPES pH 7.5, 10 mM MgCl2, 1 mM EGTA, 0.01% Brij 35 and 1 mM DTT all at RT. Enzyme, substrate labeled peptide and compound are mixed, and then the reaction is initiated with the addition of ATP at Km concentration for each enzyme. The reaction is allowed to run 60 minutes and then quenched with a 12.5 mM EDTA (ethylenediamine tetraacetic acid) solution. The plate is then developed with the addition of Europium labeled antibody for a final volume of 20 μL and is then incubated for 30 minutes in darkness. Plates are read in a Pherastar plate reader. Data is analyzed in GraphPad PRISM.
(§3) The results of these assays are shown in Table 1, below, wherein “No.” designates compound number (FIG. 1); “A” represents a value of ≤100 nM; “B” a value of >100 nM and ≤1 μM; “C” a value of >1 μM and ≤10 μM; “D” a value of >10 μM; “ND” is not determined. The ratio of Mer to FLT3 is calculated as follows: FLT3 IC50/Mer IC50. “+” represents a ratio of >2.0 and <10; “++” represents a ratio of between 10 and 100; and “+++” represents a ratio of >100.
(In general: TR-FRET usually uses a lanthanide donor and a delayed reading to cut background.)

The target of a further assay is FLT3 (Homo sapiens, UniProt P36888). Briefly: TR-FRET kinase activity assay, FLT3. To be noted: read-out: Flt3 IC50, ATP at Km, 60 minutes.
A further assay deals with MERTK (Homo sapiens, UniProt Q12866). The assay is described as follows: TR-FRET kinase activity assay, MERTK. As to conditions: for FLT3/Mer ratio (FLT3 IC50/Mer IC50): ratio calculated as FLT3 IC50/Mer IC50; for IC50: read-out: Mer IC50, TR-FRET activity assay, ATP at Km, 60 minutes. The protocol: as §1, §2, §3
In a further assay the target is TYRO3 (Homo sapiens, UniProt Q06418). The assay is described as follows: TR-FRET kinase activity assay, TYRO3. To be noted: read-out: Tyro3 IC50, ATP at Km, 60 minutes. The protocol: as §1, §2, §3

Molecules are shown by their SMILES.

A word on the IC50: it is the midpoint of a concentration-inhibition curve. Regarding `COC[C@H](C)Nc1ncc2c(-c3cnn(C[C@H]4CC(=O)N(C)C4)c3)cc([C@H]3CC[C@H](O)CC3)n2n1` [Compound 475], the IC50 at AXL was under 100 nM; on FLT3, 100 to 1000 nM; on MERTK, under 100 nM; on TYRO3 it was under 100 nM. For the same molecule, at MERTK, the “FLT3/Mer ratio (FLT3 IC50/Mer IC50)” value was “+++ (“+++” represents a ratio of >100)”.
On to `C[C@@H](CC(F)(F)F)Nc1ncc2c(C3=CC[C@H](C(=O)N4CCOCC4)CC3)cc([C@H]3CC[C@H](O)CC3)n2n1`, for which the IC50 at AXL, at FLT3, on MERTK and at TYRO3 was under 100 nM throughout. Besides, at MERTK, the “FLT3/Mer ratio (FLT3 IC50/Mer IC50)” value is “++ (“++” represents a ratio of between 10 and 100)”.
Take `C[C@H](Nc1ncc2c(-c3cnn(C4COC4)c3)cc([C@H]3CC[C@H](O)CC3)n2n1)c1ccncc1`: the IC50 on AXL was 100 to 1000 nM; at FLT3, 1000 to 10000 nM; on MERTK, under 100 nM; at TYRO3, under 100 nM. The “FLT3/Mer ratio (FLT3 IC50/Mer IC50)” value on MERTK is “+++ (“+++” represents a ratio of >100)”.
In the case of `COC[C@H](C)Nc1ncc2c(C3=CC[C@H](C(=O)N4CCOCC4)CC3)cc([C@H]3CC[C@H](O)CC3)n2n1`, the IC50 at AXL, at FLT3, at MERTK and on TYRO3 was under 100 nM in each case. The “FLT3/Mer ratio (FLT3 IC50/Mer IC50)” value on MERTK was “+++ (“+++” represents a ratio of >100)”.
